Data: patent US9611289B2, “Farnesoid X receptor modulators” (Intercept Pharmaceuticals, Inc., priority 2013, dated 2017)

The chains behind the UniProt entries cited, without tags or fusion partners.
UniProt P05181, whole entry: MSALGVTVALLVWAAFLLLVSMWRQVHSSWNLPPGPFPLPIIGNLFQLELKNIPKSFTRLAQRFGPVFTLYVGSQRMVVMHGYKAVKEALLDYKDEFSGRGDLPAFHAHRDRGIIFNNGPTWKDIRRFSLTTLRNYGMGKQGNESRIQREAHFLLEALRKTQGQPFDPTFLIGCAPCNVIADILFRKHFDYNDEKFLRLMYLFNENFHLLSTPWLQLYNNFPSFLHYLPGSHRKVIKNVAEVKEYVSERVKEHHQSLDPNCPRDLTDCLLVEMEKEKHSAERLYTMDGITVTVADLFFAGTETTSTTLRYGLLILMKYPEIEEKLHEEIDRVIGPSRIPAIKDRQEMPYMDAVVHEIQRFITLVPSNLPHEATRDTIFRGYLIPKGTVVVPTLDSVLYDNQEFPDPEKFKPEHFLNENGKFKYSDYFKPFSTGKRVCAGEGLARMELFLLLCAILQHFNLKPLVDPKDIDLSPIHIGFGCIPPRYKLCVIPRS

Molecular target: CYP2E1 (Homo sapiens, UniProt P05181)

Work on `CCN(CC)C(=S)S` yielded an IC50 of 400 nM.
